Experimental data as given in ChEMBL document CHEMBL4400551, “Discovery and lead optimisation of a potent, selective and orally bioavailable RARβ agonist for the potential treatment of nerve injury” (Bioorg Med Chem Lett, 2019).

Species: Mus musculus
Assay: Selectivity ratio of EC50 for GAL4-fused mouse RARalpha LBD expressed in COS-7 cells to EC50 for GAL4-fused mouse RARbeta-LBD expressed in COS-7 cells
Type: cell-based

COc1ccc(-c2ccc3cc(C(=O)O)ccc3c2)cc1C1(C)CCCCC1 gave a Ratio EC50 of 11.
